## Antibody variant affinities, Ab-14 heavy chain, assay B

Source: Li et al. 2023 (doi:10.1038/s41467-023-39022-2), MIT Lincoln Laboratory and A-Alpha Bio; data file from the FLAb repository.

Binding partner: SARS-CoV-2 spike HR2 peptide, sequence PDVDLGDISGINAS.

Parent: Ab-14, a human scFv built as VH, three GGGGS repeats, VL. Only the CDRs of the heavy chain vary.
VH: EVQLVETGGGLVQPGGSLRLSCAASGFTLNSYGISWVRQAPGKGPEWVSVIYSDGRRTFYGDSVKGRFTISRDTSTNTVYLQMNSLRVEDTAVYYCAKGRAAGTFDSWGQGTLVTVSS
VL: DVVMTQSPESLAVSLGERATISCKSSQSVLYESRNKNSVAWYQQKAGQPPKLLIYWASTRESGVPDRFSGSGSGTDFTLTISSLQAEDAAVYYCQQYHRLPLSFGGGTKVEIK

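The parent was found by panning a naive human phage display library on the peptide. Designed CDR sequences, proposed from the first random library and measured here. Their group label is 14H_GP_HC (GP: Gaussian process model; HC: hill climbing; a sequence that several methods proposed may carry one label only). The assay is AlphaSeq: two haploid yeast populations carry antibody and antigen on their surface. Mating (16 h, 30 °C) was followed by selection of diploids and sequencing of their barcodes. Scores were corrected for input abundance and mapped to Kd with protein pairs of known affinity run in the same pool. Each pool was mated in six replicate cultures.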

Substitutions are numbered in sequence along the VH above, starting at 1 (not Kabat).
Numbers give log10(Kd / nM), so 0 is 1 nM and 3 is 1 µM. Smaller is tighter.
"nd" marks a missing value. The strain was present, yet no cells mated with the target were sequenced in that replicate, which points to weak or no binding.

{"changes": "G26K S31E G61T A101H", "log10 Kd, replicates": "nd 0.88 nd nd nd nd", "control signals": "0 of 18"}
{"changes": "S31E G61S R100H S107G", "log10 Kd, replicates": "1.19 0.71 0.42 0.64 0.76 1.11", "control signals": "0 of 18"}
{"changes": "G61S R100Q A101L S107D", "log10 Kd, replicates": "1.30 0.48 0.48 0.64 0.66 0.72", "control signals": "0 of 18"}
{"changes": "N30D S31Q S53A", "log10 Kd, replicates": "0.53 0.49 -0.36 -0.22 -0.41 -0.15", "control signals": "0 of 18"}
{"changes": "T28S G61T R100M A101F", "log10 Kd, replicates": "0.72 1.00 1.30 0.21 0.94 0.56", "control signals": "0 of 18"}
{"changes": "S31E G61S R100Q A101Y", "log10 Kd, replicates": "0.40 0.85 -0.09 0.37 0.51 0.44", "control signals": "0 of 18"}
{"changes": "T28D T104K D106W", "log10 Kd, replicates": "nd nd nd nd nd nd", "control signals": "0 of 18"}
{"changes": "S31E G61S A101L S107R", "log10 Kd, replicates": "1.24 0.58 0.93 0.98 1.39 0.68", "control signals": "0 of 18"}
{"changes": "G61S R100H S107L", "log10 Kd, replicates": "1.09 0.78 0.50 0.43 0.45 0.82", "control signals": "2 of 18 (2.29)"}
{"changes": "T28K G61D R100Q A101V", "log10 Kd, replicates": "0.41 0.81 0.53 0.17 0.55 0.57", "control signals": "0 of 18"}
{"changes": "S31E G61E S63D A101H", "log10 Kd, replicates": "1.47 0.71 0.96 0.84 0.70 1.40", "control signals": "0 of 18"}
{"changes": "T28G S31D R100T", "log10 Kd, replicates": "2.36 1.32 1.31 1.24 1.22 1.13", "control signals": "0 of 18"}
{"changes": "N30D G61T R100Q A101L", "log10 Kd, replicates": "1.67 1.33 0.99 1.49 0.84 1.39", "control signals": "1 of 18 (3.29)"}
{"changes": "T28D A101T D106V", "log10 Kd, replicates": "nd nd nd nd 0.28 nd", "control signals": "0 of 18"}
{"changes": "T28D G61S R100H", "log10 Kd, replicates": "0.32 0.55 0.16 -0.03 0.00 0.10", "control signals": "1 of 18 (4.21)"}
{"changes": "S31E A101I S107D", "log10 Kd, replicates": "-0.02 -0.30 0.28 0.40 -0.20 0.63", "control signals": "1 of 18 (2.69)"}
{"changes": "T28Y S31D A101M D106I", "log10 Kd, replicates": "nd nd nd nd nd nd", "control signals": "0 of 18"}
{"changes": "G26K S31E G103V S107Q", "log10 Kd, replicates": "nd nd nd nd nd nd", "control signals": "0 of 18"}
{"changes": "T28E S31D F59W", "log10 Kd, replicates": "1.59 1.37 0.98 0.82 1.46 1.29", "control signals": "0 of 18"}
{"changes": "T28A S31D G61I A101L", "log10 Kd, replicates": "nd nd nd nd nd nd", "control signals": "0 of 18"}
{"changes": "T28D T104Q D106W", "log10 Kd, replicates": "nd nd nd nd nd nd", "control signals": "1 of 18 (1.86)"}

Extract of 3 entries:

{"changes": "S31E G61S R100H S107G", "log10 Kd, replicates": "1.19 0.71 0.42 0.64 0.76 1.11", "control signals": "0 of 18"}
{"changes": "N30D G61T R100Q A101L", "log10 Kd, replicates": "1.67 1.33 0.99 1.49 0.84 1.39", "control signals": "1 of 18 (3.29)"}
{"changes": "T28D T104Q D106W", "log10 Kd, replicates": "nd nd nd nd nd nd", "control signals": "1 of 18 (1.86)"}

The range of this assay differs from that of the first round, and the authors advise against merging the two.
Three control strains display no target. For all heavy chain designs, 1% of the pairings with them gave a signal, with a median of 2.08 and one signal in twenty below 0.84, so weak values seen in few replicates may be background. For each scFv, signals with the empty controls are counted beside the result, with their mean in brackets.
The authors' rule: three or more of the six replicates give a measured affinity, fewer mean a poor binder.